Protein sequences, listed by entry. Tags and fused reporters are not part of them. Lines headed by an entry give the natural chain unless they say otherwise; changes in a name come on top.
UniProt P07711: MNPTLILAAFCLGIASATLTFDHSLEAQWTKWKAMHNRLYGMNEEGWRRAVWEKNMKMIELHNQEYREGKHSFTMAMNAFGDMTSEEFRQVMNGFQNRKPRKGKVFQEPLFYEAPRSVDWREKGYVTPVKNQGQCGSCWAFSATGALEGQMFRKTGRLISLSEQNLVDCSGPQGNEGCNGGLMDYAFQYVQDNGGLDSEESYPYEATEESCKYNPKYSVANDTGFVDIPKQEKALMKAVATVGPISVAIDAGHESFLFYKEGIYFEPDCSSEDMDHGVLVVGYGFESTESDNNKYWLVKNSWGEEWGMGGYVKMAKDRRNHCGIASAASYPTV

According to ChEMBL document CHEMBL5247607, “Design, synthesis and biological evaluation of a new series of arylidene indanones as small molecules for targeted therapy of non-small cell lung carcinoma and prostate cancer” (Eur J Med Chem, 2022):

Target: Procathepsin L (Homo sapiens) (UniProt P07711)
Assay: Inhibition of cathepsin L (unknown origin) at 100 uM relative to control

inhibition: 70.4%
Compound: O=C1/C(=C/c2ccc(N3CCCC3)cc2)Cc2cc3c(cc21)OCO3
